# Assay: HS-R1a radioreceptor assay: GHS-R1a radioreceptor assay using LLCPK-1 membranes overexpressing GSH-R1a and radioiodinated (1-28) rat ghrelin as tracer.
row,SMILES,EC50 [nM]
1,NCCCC[C@H](NC(=O)[C@@H](Cc1ccccc1)NC(=O)[C@H](Cc1c[nH]c2ccccc12)NC(=O)NNC(=O)[C@@H](Cc1c[nH]c2ccccc12)NC(=O)[C@@H](N)Cc1cnc[nH]1)C(N)=O,808
2,C[C@H](NC(=O)N(CCc1ccccc1)NC(=O)[C@@H](N)Cc1cnc[nH]1)C(=O)N[C@@H](Cc1c[nH]c2ccccc12)C(=O)N[C@H](Cc1ccccc1)C(=O)N[C@@H](CCCCN)C(N)=O,729
